For this experiment, the target named is Sucrase-isomaltase, intestinal (Rattus norvegicus, UniProt P23739). Briefly: Inhibition of rat small intestinal isomaltase after 30 mins by glucose-oxidase method. A digest of the protocol:
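Enzyme source was rat small-intestinal brush border membrane vesicles suspended in 0.1 M maleate buffer, pH 6.0. Substrate solutions, prior to mixing, were maltose 74 mM (maltase), sucrose 74 mM (sucrase) and isomaltose 7.4 mM (isomaltase). Substrate, inhibitor and enzyme were incubated at 37 °C for 30 min, then stopped by 2 min boiling. Released glucose was measured by glucose oxidase. Final DMSO was 2.5%.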

Protein sequences, listed by entry. Tags and fused reporters are not part of them. Residues count along the entry.
UniProt P23739, 1014-1841 limits assumed: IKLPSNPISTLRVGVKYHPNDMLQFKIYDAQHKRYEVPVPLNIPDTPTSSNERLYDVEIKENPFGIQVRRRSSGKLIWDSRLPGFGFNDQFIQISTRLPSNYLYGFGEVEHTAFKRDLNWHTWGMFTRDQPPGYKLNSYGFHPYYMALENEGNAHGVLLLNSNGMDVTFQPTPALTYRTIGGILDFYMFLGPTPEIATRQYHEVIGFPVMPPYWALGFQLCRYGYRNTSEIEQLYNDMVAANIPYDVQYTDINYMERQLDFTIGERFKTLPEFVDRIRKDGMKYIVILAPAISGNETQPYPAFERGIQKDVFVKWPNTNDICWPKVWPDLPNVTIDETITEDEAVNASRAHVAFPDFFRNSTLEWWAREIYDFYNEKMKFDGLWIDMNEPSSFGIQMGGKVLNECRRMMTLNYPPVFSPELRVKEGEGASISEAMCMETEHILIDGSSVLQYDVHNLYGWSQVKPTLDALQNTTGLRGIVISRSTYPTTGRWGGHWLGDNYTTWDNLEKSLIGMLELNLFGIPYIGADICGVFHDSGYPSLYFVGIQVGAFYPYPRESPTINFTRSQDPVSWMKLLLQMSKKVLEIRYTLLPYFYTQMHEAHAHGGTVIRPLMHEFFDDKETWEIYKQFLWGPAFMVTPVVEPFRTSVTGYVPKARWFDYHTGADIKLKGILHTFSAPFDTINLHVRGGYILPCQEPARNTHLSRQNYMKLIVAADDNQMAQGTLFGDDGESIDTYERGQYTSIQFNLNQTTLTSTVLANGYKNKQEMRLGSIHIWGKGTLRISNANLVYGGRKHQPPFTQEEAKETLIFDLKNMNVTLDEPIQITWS
UniProt P23739, 1-1013 limits assumed: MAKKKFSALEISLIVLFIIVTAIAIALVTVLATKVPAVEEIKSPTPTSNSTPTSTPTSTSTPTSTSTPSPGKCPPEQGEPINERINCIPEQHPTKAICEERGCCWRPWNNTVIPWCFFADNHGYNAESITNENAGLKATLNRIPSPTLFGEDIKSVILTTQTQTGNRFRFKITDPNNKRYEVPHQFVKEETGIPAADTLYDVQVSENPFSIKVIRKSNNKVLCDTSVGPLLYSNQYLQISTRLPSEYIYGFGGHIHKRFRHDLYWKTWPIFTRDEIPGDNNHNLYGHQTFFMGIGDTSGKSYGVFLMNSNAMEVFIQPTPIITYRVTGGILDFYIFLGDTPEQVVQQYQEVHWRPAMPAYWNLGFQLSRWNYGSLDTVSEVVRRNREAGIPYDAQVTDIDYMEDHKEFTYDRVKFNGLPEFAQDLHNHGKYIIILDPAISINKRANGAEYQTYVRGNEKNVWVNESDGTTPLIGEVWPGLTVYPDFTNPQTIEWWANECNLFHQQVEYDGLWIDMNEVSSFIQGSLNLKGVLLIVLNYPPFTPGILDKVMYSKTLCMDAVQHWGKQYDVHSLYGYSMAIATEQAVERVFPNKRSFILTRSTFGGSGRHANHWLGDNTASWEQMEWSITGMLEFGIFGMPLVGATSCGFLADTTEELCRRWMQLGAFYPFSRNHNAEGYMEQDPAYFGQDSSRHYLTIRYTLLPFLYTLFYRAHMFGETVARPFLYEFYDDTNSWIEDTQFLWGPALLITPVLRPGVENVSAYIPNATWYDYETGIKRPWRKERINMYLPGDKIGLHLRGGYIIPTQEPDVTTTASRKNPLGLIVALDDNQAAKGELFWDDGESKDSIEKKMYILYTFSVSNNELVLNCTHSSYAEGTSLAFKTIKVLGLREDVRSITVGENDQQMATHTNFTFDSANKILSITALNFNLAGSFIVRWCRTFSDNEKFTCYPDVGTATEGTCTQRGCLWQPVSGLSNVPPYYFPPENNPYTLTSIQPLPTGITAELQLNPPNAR

As a reminder, the IC50 is the concentration needed to halve the response being measured. A high value points to weaker potency in that assay.

The molecule `C[C@H]1O[C@H](O[C@H]2[C@H](O)[C@@H](O)[C@@H](O[C@H]3[C@H](O)[C@@H](O)C(O)O[C@@H]3CO)O[C@@H]2CO)[C@H](O)[C@@H](O)[C@@H]1N[C@H]1C=C(CO)[C@@H](O)[C@H](O)[C@H]1O` (stereo partly specified) [ACARBOSE] displayed an IC50 of 646 µM.
